Molecular target: human Cot/Tpl2 kinase (Homo sapiens, UniProt P41279)
Test: Tpl2/Cot kinase assay: GST-MEK1 phosphorylation detected by ELISA (DELFIA Eu)
Format: biochemical
Settings: 50 uM ATP

The chains behind the UniProt entries cited, without tags or fusion partners. Residues count along the entry.
UniProt P41279, 30-398 limits assumed: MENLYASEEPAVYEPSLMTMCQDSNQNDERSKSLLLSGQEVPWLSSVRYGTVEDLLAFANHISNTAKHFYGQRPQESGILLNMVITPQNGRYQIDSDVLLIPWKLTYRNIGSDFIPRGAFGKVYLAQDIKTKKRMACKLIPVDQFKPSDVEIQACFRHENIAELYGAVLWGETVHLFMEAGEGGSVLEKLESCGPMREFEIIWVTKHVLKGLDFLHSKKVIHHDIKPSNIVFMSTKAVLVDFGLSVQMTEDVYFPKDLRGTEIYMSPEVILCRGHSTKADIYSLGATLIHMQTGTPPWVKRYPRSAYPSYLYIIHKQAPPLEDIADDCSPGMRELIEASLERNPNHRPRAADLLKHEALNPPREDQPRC

| SMILES | IC50 (GST-MEK1 substrate) | IC50 (Table 2, GST-MEK1 substrate) |
| --- | --- | --- |
| N#Cc1cnc2c(Br)cc(NCc3cn(Cc4cccc(C(F)(F)F)n4)nn3)cc2c1Nc1ccc(F)c(Cl)c1 | 270 nM | – |
| N#Cc1cnc2c(Cl)cc(NCc3cn(C4CN5CCC4CC5)nn3)cc2c1Nc1ccc(F)c(Cl)c1 (stereo not drawn) | 1.8 nM | – |
| CC(C)(C)Nc1c(C#N)cnc2ccc(NCc3cccc(S(C)(=O)=O)c3)cc12 | – | 4800 nM |
